Test results as given in patent US20180044343A1, “BICYCLIC IMIDAZOLO DERIVATIVE” (Sumitomo Dainippon Pharma Co., Ltd., priority 2015, published 2018).

Sequences of proteins named here, by UniProt entry; tags and fusion partners are left off.
UniProt Q01064, whole entry: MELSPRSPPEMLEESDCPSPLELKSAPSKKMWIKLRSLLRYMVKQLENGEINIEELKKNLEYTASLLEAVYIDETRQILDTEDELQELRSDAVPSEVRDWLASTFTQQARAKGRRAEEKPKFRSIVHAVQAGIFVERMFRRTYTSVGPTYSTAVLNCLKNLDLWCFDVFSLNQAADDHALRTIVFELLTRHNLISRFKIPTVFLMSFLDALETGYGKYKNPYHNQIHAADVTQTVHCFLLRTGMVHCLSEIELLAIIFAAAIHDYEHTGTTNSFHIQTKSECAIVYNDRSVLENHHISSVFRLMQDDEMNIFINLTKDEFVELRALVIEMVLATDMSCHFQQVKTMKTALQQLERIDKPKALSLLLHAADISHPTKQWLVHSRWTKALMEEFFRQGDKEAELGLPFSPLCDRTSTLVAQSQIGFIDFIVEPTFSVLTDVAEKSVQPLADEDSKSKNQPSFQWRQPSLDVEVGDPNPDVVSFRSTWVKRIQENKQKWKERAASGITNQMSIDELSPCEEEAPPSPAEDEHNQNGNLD
UniProt Q14123, whole entry: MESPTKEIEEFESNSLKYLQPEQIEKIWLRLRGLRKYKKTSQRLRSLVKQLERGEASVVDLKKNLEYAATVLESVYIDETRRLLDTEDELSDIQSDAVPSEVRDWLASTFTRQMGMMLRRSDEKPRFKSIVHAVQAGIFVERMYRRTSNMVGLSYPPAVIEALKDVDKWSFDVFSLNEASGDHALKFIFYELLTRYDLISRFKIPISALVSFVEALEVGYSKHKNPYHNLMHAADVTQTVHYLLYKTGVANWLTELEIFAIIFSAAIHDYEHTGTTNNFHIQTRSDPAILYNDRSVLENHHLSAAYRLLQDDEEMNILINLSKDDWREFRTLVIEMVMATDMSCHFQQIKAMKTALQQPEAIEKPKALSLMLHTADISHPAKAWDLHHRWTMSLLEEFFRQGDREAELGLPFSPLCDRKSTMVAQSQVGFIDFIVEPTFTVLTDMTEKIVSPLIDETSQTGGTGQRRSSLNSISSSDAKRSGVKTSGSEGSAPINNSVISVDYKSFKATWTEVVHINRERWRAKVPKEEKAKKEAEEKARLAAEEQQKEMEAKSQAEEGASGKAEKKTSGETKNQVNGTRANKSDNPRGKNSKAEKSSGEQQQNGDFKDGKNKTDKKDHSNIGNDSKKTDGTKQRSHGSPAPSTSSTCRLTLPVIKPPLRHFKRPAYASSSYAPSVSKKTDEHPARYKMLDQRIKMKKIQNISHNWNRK
UniProt P54750, whole entry: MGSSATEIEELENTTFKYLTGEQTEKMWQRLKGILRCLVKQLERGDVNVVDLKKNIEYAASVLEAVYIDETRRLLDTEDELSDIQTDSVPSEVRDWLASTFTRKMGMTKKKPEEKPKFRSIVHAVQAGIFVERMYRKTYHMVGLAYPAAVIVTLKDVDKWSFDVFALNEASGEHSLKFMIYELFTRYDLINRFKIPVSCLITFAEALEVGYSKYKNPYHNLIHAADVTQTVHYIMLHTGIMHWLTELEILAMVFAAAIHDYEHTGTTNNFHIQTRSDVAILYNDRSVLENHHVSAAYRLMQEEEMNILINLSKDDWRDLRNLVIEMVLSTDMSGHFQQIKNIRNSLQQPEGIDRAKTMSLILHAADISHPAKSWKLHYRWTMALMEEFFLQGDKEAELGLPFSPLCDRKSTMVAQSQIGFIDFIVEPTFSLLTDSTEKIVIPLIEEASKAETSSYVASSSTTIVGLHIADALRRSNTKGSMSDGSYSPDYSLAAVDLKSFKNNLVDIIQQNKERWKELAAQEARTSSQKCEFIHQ

Legend:
PDE1B [1] = molecular target: T1, PDE1B (Homo sapiens, UniProt Q01064); assay: In vitro SPA PDE1 inhibition assay (PDE1B); conditions: read-out: IC50 (μM), in vitro PDE1B SPA Assay, [3H]-cGMP 100 nM
Procedure: (§1) The commercially available Scintillation Proximity Assay (SPA) system (Perkinelmer) was used for PDE1 inhibition assays. SPA Yttrium Silicate beads preferentially binds to non-cyclic GMP compared to cyclic GMP (cGMP) in the presence of zinc sulphate, which enables to measure the amount of enzyme reaction product ([^3H]-GMP) by scintillation counting.
(§2) For PDE1 inhibition assay, 10 μl of the test compounds in 5% dimethyl sulfoxide diluted in SPA assay buffer (1 mM CaCl2, 10 mM MgSO4, 10 mM Tris-HCl, pH 7.4) were placed in a 96-well white microtiter plate, and 20 μl of [^3H]-cGMP solution (100 nM final concentration, Perkinelmer) in SPA assay buffer was added. Assays were initiated by adding 20 μl of PDE (1A3, 1B or 1C) enzyme solution including calmodulin (final concentration 1 μg/ml). After 30 min incubation at 27° C., the reaction was stopped by the addition of 50 μl of a suspension of 10 mg/ml SPA beads in 18 mM ZnSO4. The microtiter plates were settled for 60 min, and then were measured in a TopCount NXT scintillation counter (PerkinElmer). IC50 values were determined from sigmoidal curves by plotting the percentage of PDE activity versus log compound concentration. IC50 was defined as the concentration of the test compounds required to inhibit the cyclic nucleotide hydrolyzing activities of tested PDEs by 50%.

PDE1C [2] = molecular target: T2, PDE1C (Homo sapiens, UniProt Q14123); assay: In vitro SPA PDE1 inhibition assay (PDE1C); conditions: read-out: IC50 (μM), in vitro PDE1C SPA Assay, [3H]-cGMP 100 nM
Procedure: as §1, §2

PDE1A3 [3] = molecular target: T3, PDE1A3 (Homo sapiens, UniProt P54750); assay: In vitro SPA PDE1 inhibition assay (PDE1A3); conditions: read-out: IC50 (μM), in vitro PDE1A3 SPA Assay, PDE1A3, [3H]-cGMP 100 nM
Procedure: as §1, §2

PDE1C [4] = molecular target: T2, PDE1C; assay: In vitro HTRF PDE1 inhibition assay (PDE1C); type: biochemical; conditions: read-out: IC50 (μM), in vitro PDE1C HTRF Assay, 100 nM cyclic GMP
Description: (§3) An exemplary procedure for the in vitro Homogenous Time Resolved Fluorescence assay, which can be used to determine the inhibitory action of compounds of the present invention toward PDE1 or its isoforms, follows.
(§4) The HTRF PDE1 assay utilized the HTRF (Homogenous Time Resolved Fluorescence) technology, which is based on the competition between unlabeled cyclic nucleotide and cyclic nucleotide labeled with XL665 for the binding to cyclic nucleotide-specific antibody labeled with cryptate. The HTRF signal is thus inversely proportional to the concentration of cyclic nucleotide being measured. Since phosphodiesterases break down cyclic nucleotides, the HTRF signal was used to determine PDE activity.
(§5) The Cisbio cGMP HTRF assay kit (Cat no: 62GM2PEC) was utilized. Cyclic GMP was diluted to 200 nM in HTRF assay buffer (1 mM CaCl2, 10 mM MgCl2, 10 mM Tris-HCl, 0.1% BSA, pH 7.4). 10 μl of compound or DMSO was diluted in 200 nM cyclic GMP solution and added to wells of a 96 well white plate to give 100 nM cyclic GMP in 1% DMSO final concentration. PDE (1A3, 1B or 1C) was diluted to 2× working concentration in HTRF assay buffer with 2 μg/ml Calmodulin, and 10 μl was added to initiate the reaction. […] The plate was then read on Perkin Elmer EnVision at 2 different FRET readings ex/em 340 nm/665 nm and 340 nm/615 nm. […]

PDE1A3 [5] = molecular target: T3, PDE1A3; assay: In vitro HTRF PDE1 inhibition assay (PDE1A3); type: biochemical; conditions: read-out: IC50 (μM), in vitro PDE1A3 HTRF Assay, PDE1A3, 100 nM cyclic GMP
Description: as §3, §4, §5

PDE1B [6] = molecular target: T1, PDE1B; assay: In vitro HTRF PDE1 inhibition assay (PDE1B); type: biochemical

CC(C)c1ncc2c(=O)n(C)c(OCC3CCOCC3)nn12
IC50 (PDE1B [1]): 0.469 µM
IC50 (PDE1C [2]): 4.88 µM
IC50 (PDE1A3 [3]): 1.43 µM
IC50 (PDE1C [4]): 1 to 10 µM
IC50 (PDE1A3 [5]): < 1 µM
IC50 (PDE1B [6]): < 1000 nM

Cn1c(OCc2ccc(F)cc2)nn2c(C3CCOCC3)ncc2c1=O
IC50 (PDE1B [6]): < 1000 nM

CC(C)c1ncc2c(=O)n(C)c(OCc3ccc(F)cn3)nn12
IC50 (PDE1B [6]): < 1000 nM

Cn1c(OCc2nccs2)nn2c(C3CCOCC3)ncc2c1=O
IC50 (PDE1B [6]): < 1000 nM

Cn1c(OCC2CCC(F)(F)CC2)nn2c(C3CCOCC3)ncc2c1=O
IC50 (PDE1B [6]): < 1000 nM

COc1ccc(COc2nn3c(C4CCOCC4)ncc3c(=O)n2C)cc1
IC50 (PDE1B [6]): 1000 to 10000 nM

Cc1ccc(COc2nn3c(C(C)C)ncc3c(=O)n2C)cc1
IC50 (PDE1B [6]): < 1000 nM

CC(Oc1nn2c(C3CCOCC3)ncc2c(=O)n1C)C1CCC(F)(F)CC1 (centres unmarked)
IC50 (PDE1B [6]): < 1000 nM

Cn1c(OCc2ccccn2)nn2c(C3CCOCC3)ncc2c1=O
IC50 (PDE1B [6]): < 1000 nM

Cn1c(OCCOc2ccc(F)cc2)nn2c(C3CCOCC3)ncc2c1=O
IC50 (PDE1B [6]): < 1000 nM

CCn1c(OCCOC)nn2c(C(C)C)ncc2c1=O
IC50 (PDE1B [6]): < 1000 nM

CCn1c(OCc2ccncc2)nn2c(C(C)C)ncc2c1=O
IC50 (PDE1B [6]): < 1000 nM
